{"source": "paper PMC4361037", "about": "(Annals of neurology, 2014)", "origin": "cited, not measured here", "system": "HDAC3 versus HDAC1/2", "conditions": "cited from earlier work"}
{"smiles": "Nc1ccc(-c2cccs2)cc1NC(=O)CCCCCCNC(=O)c1cccnc1", "note": "[HDACi 233, N-[2-amino-5-(2-thienyl)phenyl]-7-nicotinoylamino-heptanamide]", "values": [{"measurement": "selectivity (HDAC1/2) over HDAC3", "value": "> 200", "unit": "fold"}]}
